Patent US20150174144A1, “TETRACYCLINE COMPOUNDS FOR TREATING NEURODEGENERATIVE DISORDERS” (PARATEK PHARMACEUTICALS, INC., priority 2012, published 2015)

B1: IFN-β: beta interferon, approved MS therapy (protein, UniProt P01574 22-187, looked up)
Interferon beta: MSYNLLGFLQRSSNFQCQKLLWQLNGRLEYCLKDRMNFDIPEEIKQLQQFQKEDAALTIYEMLQNIFAIFRQDSSSTGWNETIVENLLANVYHQINHLKTVLEEKLEKEDFTRGKLMSSLHLKRYYGRILHYLKAKEYSHCAWTIVRVEILRNFYFINRLTGYLRN

Assays:
[1] = test system: MS; settings: cited from earlier work
[2] = test system: animal models of MS and neuroprotection; experiment: Accepted animal models of MS and neuroprotection (Table 2); set-up: concentration or dose not given beside the values; settings: in vivo

Molecule | % Relapses eduction ([1]; MS clinical studies) | % lesion reduction ([1]; MS clinical studies, gadolinium-enhancing MRI lesions) | potential side effects ([1]; human, in vivo) | % Inhibition Clinical Score [2] | % Inhibition Demyelination [2] | % Inhibition Inflammation [2]
interferon beta-1a [AVONEX ®] | 32% | 57% | Infection, seizure liver |  |  | 
B1 |  |  |  | 38% | 29% | 28%
